Results on four compounds are retold here after paper PMC9491098, “Discovery of novel drug-like antitubercular hits targeting the MEP pathway enzyme DXPS by strategic application of ligand-based virtual screening” (Chemical Science, 2022).

Sequences of proteins named here, by UniProt entry; tags and fusion partners are left off.
UniProt Q9RUB5, whole entry H304A: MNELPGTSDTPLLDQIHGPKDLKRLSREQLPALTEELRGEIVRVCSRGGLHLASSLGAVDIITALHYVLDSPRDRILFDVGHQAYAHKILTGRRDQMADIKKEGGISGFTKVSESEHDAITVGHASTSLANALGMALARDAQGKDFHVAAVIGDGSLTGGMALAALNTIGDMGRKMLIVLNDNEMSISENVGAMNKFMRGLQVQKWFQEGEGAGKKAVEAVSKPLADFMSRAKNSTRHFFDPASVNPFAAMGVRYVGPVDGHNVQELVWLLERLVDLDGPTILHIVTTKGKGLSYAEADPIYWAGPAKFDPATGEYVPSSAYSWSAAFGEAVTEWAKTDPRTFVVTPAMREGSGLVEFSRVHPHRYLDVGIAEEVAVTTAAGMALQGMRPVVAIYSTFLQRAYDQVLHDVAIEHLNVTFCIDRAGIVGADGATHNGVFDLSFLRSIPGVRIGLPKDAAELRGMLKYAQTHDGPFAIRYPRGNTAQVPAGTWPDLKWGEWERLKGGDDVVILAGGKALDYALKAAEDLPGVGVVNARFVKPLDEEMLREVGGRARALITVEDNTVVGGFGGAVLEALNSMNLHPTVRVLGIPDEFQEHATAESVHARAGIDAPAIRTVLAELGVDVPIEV

A word on the inhibition: it is how much of the control response was suppressed. Broadly, the IC50 is the concentration at which inhibition is half-maximal. Low values mean higher potency, high ones lower potency.

For this assay, the target named is DrDXPS (H304A) (Deinococcus radiodurans, UniProt Q9RUB5, H304A). Put plainly: biochemical.

As for `OCc1cn(Cc2ccc(Cl)c(Cl)c2)c2ccccc12` [Compound 7], the inhibition at 100 µM (read-out: Inhibition % at 100 μM) stood at 32 ± 2%. The compound `ON=C(Cc1ccc(Cl)cc1)c1ccc(O)cc1O` [Compound 9] displayed a half-maximal inhibitory concentration (IC50) greater than 200 µM. Compound `Cc1nc(N)sc1-c1csc(Nc2ccc(C(F)(F)F)cc2)n1` [Compound 10] yielded an IC50 greater than 200 µM.

Consider `Cc1ncc(Cc2csc(CCO)c2C)c(N)n1` [DZT, deazathiamine, reference compound], for which the 50% inhibitory concentration (IC50) is greater than 4000 µM.
